Measurements reported in patent publication US20180333502A1 (published 2018).

Biological target: T1, human GITR on cells (activated human T cells; 3A9-hGITR cells) (human, UniProt Q9Y5U5 26-241)
T1 sequence (looked up): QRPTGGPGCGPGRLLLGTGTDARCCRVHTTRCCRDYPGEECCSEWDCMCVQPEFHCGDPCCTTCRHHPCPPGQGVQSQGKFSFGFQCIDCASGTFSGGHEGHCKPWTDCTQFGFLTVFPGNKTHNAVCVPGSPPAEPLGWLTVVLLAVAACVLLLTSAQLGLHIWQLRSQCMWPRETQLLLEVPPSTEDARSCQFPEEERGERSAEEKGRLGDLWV
Assay: cell-based or functional assay

Row | Binder | Emax (%), phospho-p65 NFkB signaling, CD4+ T cells | Emax (%), phospho-p65 NFkB signaling, CD8+ T cells
1 | anti-GITR-IgG2-IgG1 (antibody) heavy: QVQLVESGGGVVQPGRSLRLSCAASGFTFSSYGMHWVRQAPGKGLEWVAVIWYEGSNKYYADSVKGRFTISRDNSKNTLYLQMNSLRAEDTAVYYCARGGSMVRGDYYYGMDVWGQGTTVTVSSASTKGPSVFPLAPCSRSTSESTAALGCLVKDYFPEPVTVSWNSGALTSGVHTFPAVLQSSGLYSLSSVVTVPSSNFGTQTYTCNVDHKPSNTKVDKTVERKCCVE[human IgG1 Fc not written out] light: AIQLTQSPSSLSASVGDRVTITCRASQGISSALAWYQQKPGKAPKLLIYDASSLESGVPSRFSGSGSGTDFTLTISSLQPEDFATYYCQQFNSYPYTFGQGTKLEIKRTVAAPSVFIFPPSDEQLKSGTASVVCLLNNFYPREAKVQWKVDNALQSGNSQESVTEQDSKDSTYSLSSTLTLSKADYEKHKVYACEVTHQGLSSPVTKSFNRGEC | 100 % of GITR.6.G2.G1f | 92 % of GITR.6.G2.G1f
2 | anti-GITR-IgG1 (antibody) heavy: QVQLVESGGGVVQPGRSLRLSCAASGFTFSSYGMHWVRQAPGKGLEWVAVIWYEGSNKYYADSVKGRFTISRDNSKNTLYLQMNSLRAEDTAVYYCARGGSMVRGDYYYGMDVWGQGTTVTVSSASTKGPSVFPLAPSSKSTSGGTAALGCLVKDYFPEPVTVSWNSGALTSGVHTFPAVLQSSGLYSLSSVVTVPSSSLGTQTYICNVNHKPSNTKVDKKV[human IgG1 Fc not written out] light: AIQLTQSPSSLSASVGDRVTITCRASQGISSALAWYQQKPGKAPKLLIYDASSLESGVPSRFSGSGSGTDFTLTISSLQPEDFATYYCQQFNSYPYTFGQGTKLEIKRTVAAPSVFIFPPSDEQLKSGTASVVCLLNNFYPREAKVQWKVDNALQSGNSQESVTEQDSKDSTYSLSSTLTLSKADYEKHKVYACEVTHQGLSSPVTKSFNRGEC | 10.8 % of GITR.6.G2.G1f | 27 % of GITR.6.G2.G1f
